{
  "source": "patent US9387206B2",
  "about": "“Therapeutic approaches for treating Alzheimer's disease” (PHARNEXT, priority 2009, dated 2016)",
  "tested_on": "human brain microvascular endothelial cells (HBMEC)",
  "experiment": "Total length of capillary network in human Aβ1-42 intoxicated HBMEC cultures",
  "format": "cell-based",
  "conditions": "VEGF 10 nM, 1 hr pre-treatment; Aβ1-42 2.5 μM, 18 h",
  "protocol": "Human brain microvascular endothelial cell cultures were used to study the protection afforded by candidate compounds on Aβ1-42 toxicity.\nHuman brain microvascular endothelial cerebral cells (HBMEC, ScienCell Ref: 1000, frozen at passage 10) were rapidly thawed in a water bath at +37° C. […] On matrigel support, endothelial cerebral cells spontaneously started the process of capillary network morphogenesis (47).\nThree separate cultures were performed per condition, 6 wells per condition.\nThe control medium was prepared in the same conditions.\nThe Aβ1-42 peptide was added 2 hours after HBMEC seeding on matrigel for 18 hours incubation.\nCapillary Network Quantification\nPer well, 2 pictures with 4× lens were taken using InCell Analyzer™ 1000 (GE Healthcare) in light transmission. All images were taken in the same conditions. Analysis of the angiogenesis networks was done using Developer software (GE Healthcare). The total length of capillary network was assessed.\nAll values are expressed as mean±s.e.mean of the 3 cultures (n=6 per condition). Statistical analyses were done on the different conditions performing an ANOVA followed by the Dunnett's test when it was allowed (Statview software version 5.0). […] Indeed, the amyloid toxicity was taken as the 100% and the test compound effect was calculated as a % of this amyloid toxicity.",
  "data": [
    {"substance": "VEGF", "values": [
      {"measurement": "Capillary network compared to amyloid intoxication", "value": "+78%"}
    ]}
  ]
}
